# Bioassay records deposited in PubChem BioAssay by National Center for Advancing Translational Sciences (NCATS).
# uPA surface inh: inhibitors of cell surface uPA generation; actives 0.31% (n = 330,000); cell surface uPA generation assay, qHTS; AID 540303; Potency, µM (doses to about 38.3 µM), inactives show at the highest dose activity change, negative = inhibition, most hits filed as inhibitors; active means well fitted inhibition curve with a large enough effect; inconclusive means small, poorly fitted or top-dose-only effect; inactive means no such curve, though single readings can be large or run the other way; tested in mouse RAW 264.7 cells; further: potency means the concentration at half of the fitted maximal effect; on the % scale 0 is the no-effect control and ±100 the full control effect; nearly all actives have a fitted effect of over 55% in size
# TDP1 cell CPT: growth inhibition of DT40 Tdp1-/-;hTDP1 cells with camptothecin (screen for TDP1 inhibitors); actives 12% (n = 420,000); AID 686979; Potency, µM (titrated, usually from 46.2 µM), without a hit: at the top dose activity change, negative = growth inhibition, actives largely listed as inhibitors; chicken DT40 Tdp1-/-;hTDP1 cells + 20 nM CPT, ATP luminescence, 48 h; further: potency means the concentration at half of the fitted maximal effect; on the % scale 0 is the no-effect control and ±100 the full control effect; nearly all actives have a fitted effect of over 55% in size
#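 Cell growth measured by CellTiter-Glo luminescence after a minimum 48 h, 37 C compound exposure with 20 nM CPT in Tdp1-knockout DT40 cells stably expressing hTDP1, seeded 400/well; qHTS titration format.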
# miR-21 reporter: raises the signal of a miR-21 reporter | Potency, µM (doses to about 38.3 µM), for inactives: top-dose reporter change, positive = more light | HeLa miR-21 FLuc reporter, luciferase, 48 h | AID 2288 | 340,000 tested, under 10 active; active = well fitted rising curve with a large enough effect; inconclusive = small, poorly fitted or top-dose-only effect; inactive = no such curve, though single readings can be large or run the other way;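 also: % of control where 0% means no effect; miR-21 action dims this reporter so a rising signal means less miR-21 action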
#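 HeLa miR-21-FLuc reporter line, endogenous miR-21; 2000 cells/well in DMEM/10% FBS; compound titration up to ~40uM final, 48 h, 37 degree Celsius; luciferase detection reagent, 15 min lysis, CCD luminescence.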
# TDP1 inh: blocks human tyrosyl-DNA phosphodiesterase 1; actives 0.28% (n = 350,000); AID 485290; Potency, µM (highest dose often 130 µM), without a hit: top-dose activity change, negative = inhibition, hits mostly inhibitors; recombinant TDP1, AlphaScreen DNA substrate cleavage; further: potency means the concentration at half of the fitted maximal effect; on the % scale 0 is the no-effect control and ±100 the full control effect; nearly all actives have a fitted effect of over 40% in size
#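 Signal: AlphaScreen proximity between streptavidin donor and anti-FITC acceptor beads on intact substrate. Reaction: Tdp1 1 nM, substrate 15 nM final, 5 min RT after 15 min compound preincubation.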
# DT40 TDP1 no CPT: qHTS for Inhibitors of human tyrosyl-DNA phosphodiesterase 1 (TDP1): qHTS in cells in absence of CPT; DT40 Tdp1-/- hTDP1 cells, no CPT, ATP luminescence, 48 h; Potency, µM (highest dose often 46.2 µM), inactives show top-dose activity change, negative = growth inhibition, most hits filed as inhibitors; actives 15% (n = 420,000); AID 686978, 2013; further: potency means the concentration at half of the fitted maximal effect; on the % scale 0 is the no-effect control and ±100 the full control effect; nearly all actives have a fitted effect of over 55% in size
#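 Luminescent ATP content (CellTiter-Glo) served as the growth readout. Knockout chicken DT40 cells expressing human TDP1 were exposed to compounds without camptothecin for a minimum 48 hr at 37 °C.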
# Active calls of the source: *; ? = inconclusive; . = not tested or not shown; ! = repeats disagree; [ ] = dose if it differs, or a comment. In the library only some 16% were active in any assay of this set; here they are far more common. Unless noted, the call rests on the fitted dose curve; in most records, active means well fitted curve in the direction sought with a large enough effect; inconclusive means small, poorly fitted or top-dose-only effect, or another doubt; inactive means no such curve, though single readings can be large; an effect the other way counts as inactive or inconclusive.
# Order of results – DT40 TDP1 no CPT	miR-21 reporter	TDP1 cell CPT	uPA surface inh	TDP1 inh
- Clc1ccc(OCc2nnc(SCc3nc4ccccc4[nH]3)n2Cc2ccco2)cc1
    20.6µM*	?	20.6µM*	-3.4%	9.4%
- Clc1cccc(-c2nnc(SCc3nc4ccccc4[nH]3)n2Cc2ccco2)c1
    ?	4.3%	?	4.3%	5.3%
- O=C(Nc1ccccc1)Nc1c(F)cccc1F
    -6.9%	-28.6%	-25.8%	-2.0%	2.7%
- CNC(=O)/C(C#N)=C/c1c(N(Cc2ccccc2)Cc2ccccc2)nc2ccccn2c1=O
    16.4µM*	-1.3%	16.4µM*	-15.7%	2.6%
- COc1ccccc1C(=O)Nc1ccc2c(c1)CCCN2C(=O)c1ccccc1
    13µM*	-5.0%	16.4µM*	-2.3%	3.7%
- COc1ccccc1C(=O)Nc1ccc2c(c1)CCCN2C(=O)c1cccs1
    20.6µM*	-3.8%	?	0.3%	2.6%
- O=C(Nc1ccc2c(c1)CCCN2C(=O)c1cccs1)c1ccccc1C(F)(F)F
    23.1µM*	25.1%	?	.	1.2%
- COc1ccccc1C(=O)NCc1ccc2c(c1)CCN2C(=O)c1ccncc1
    ?	7.0%	?	.	5.4%
- Nc1nc(N2CCN(c3ccccc3)CC2)n[nH]1
    1.2%	1.2%	11.1%	-2.6%	-5.4%
- COc1ccc(NC(=O)c2cc3n(n2)C(C(F)(F)F)CC(c2ccco2)N3)cc1 (stereo not drawn)
    ?	-10.9%	-22.3%	-13.2%	2.1%

# Next part, overlapping the part above by six compounds.
# Order of results – DT40 TDP1 no CPT	miR-21 reporter	TDP1 cell CPT	uPA surface inh	TDP1 inh
- COc1ccccc1C(=O)Nc1ccc2c(c1)CCCN2C(=O)c1ccccc1
    13µM*	-5.0%	16.4µM*	-2.3%	3.7%
- COc1ccccc1C(=O)Nc1ccc2c(c1)CCCN2C(=O)c1cccs1
    20.6µM*	-3.8%	?	0.3%	2.6%
- O=C(Nc1ccc2c(c1)CCCN2C(=O)c1cccs1)c1ccccc1C(F)(F)F
    23.1µM*	25.1%	?	.	1.2%
- COc1ccccc1C(=O)NCc1ccc2c(c1)CCN2C(=O)c1ccncc1
    ?	7.0%	?	.	5.4%
- Nc1nc(N2CCN(c3ccccc3)CC2)n[nH]1
    1.2%	1.2%	11.1%	-2.6%	-5.4%
- COc1ccc(NC(=O)c2cc3n(n2)C(C(F)(F)F)CC(c2ccco2)N3)cc1 (stereo not drawn)
    ?	-10.9%	-22.3%	-13.2%	2.1%
- Cc1cc(NC(=O)c2cc3n(n2)C(C(F)(F)F)CC(c2ccco2)N3)n(-c2ccccc2)n1 (stereo not drawn)
    14.6µM*	16.5%	?	7.9%	1.1%
- COc1cc2c(cc1OC)C(C)N(C(=O)c1cc3n(n1)C(C(F)(F)F)CC(c1ccco1)N3)CC2 (stereo not drawn)
    ?	-10.7%	?	0.9%	-7.3%
- O=C(NCC12CC3CC(CC(C3)C1)C2)c1cc2n(n1)C(C(F)(F)F)CC(c1ccco1)N2 (stereo not drawn)
    14.6µM*	3.0%	10.3µM*	2.1%	0.0%
- COc1ccccc1C=CC(=O)C=Cc1ccccc1OC
    3.26µM*	.	4.61µM*	-10.9%	.
- COc1ccccc1/C=C/C(=O)Nc1cccnc1Cl
    0.7%	-58.1%	-7.2%	0.2%	-0.7%
- COc1ccccc1/C=C/C(=O)/C=C/c1ccccc1O
    2.91µM*	?	2.91µM*	-13.7%	7.5%
- COc1ccccc1/C=C/C(C)=O
    3.7%	-11.4%	5.3%	-7.9%	5.1%
- CNc1ccccc(C(=O)/C=C/c2ccccc2OC)c1=O
    14.6µM*	-2.1%	18.4µM*	-8.8%	2.5%
- O=C1O[C@H]2[C@H](O)[C@@H]1OC(O)[C@H]2O (stereo partly drawn)
    1.9%	.	-4.8%	.	.
- O=C(NC(=O)N1CCCCC1)c1ccccc1
    -10.9%	-16.1%	7.0%	-1.0%	-1.2%
- CCCCC[C@H](O)C/C=C1/C(=O)C=C[C@@H]1C/C=C\CCCC(=O)O
    .	.	.	.	11.0%
- CCCCC/C=C/C=C1/C(=O)C=C[C@@H]1C/C=C\CCCC(=O)O
    -30.0%[4.12 µM]	.	0.9%[4.12 µM]	.	17.8µM*!
- CCOC(=O)C(C)N1CC(=O)N(c2ccccc2)C1=O (stereo not drawn)
    -9.5%	.	3.0%	7.9%	.
- CC(=O)N(C)C[C@@H]1Oc2ncc(Br)cc2C(=O)N([C@H](C)CO)C[C@@H]1C
    -18.9%	.	-1.8%	.	.
- Cc1cc(C)n(-c2cc(N3CCN(S(=O)(=O)c4ccc(Cl)cc4)CC3)ccc2[N+](=O)[O-])n1
    6.51µM*	6.7%	7.31µM*	-4.3%	3.4%
- O=[N+]([O-])c1ccc(N2CCCC2)cc1N1CCCC1
    ?	-0.7%	?	-4.3%	6.7%
- Cc1cc(C)n(-c2cc(N3CCN(C(=O)c4cccc(Br)c4)CC3)ccc2[N+](=O)[O-])n1
    20.6µM*	17.8%	?	-8.1%	7.8%
- CC(=O)N1CCN(c2ccc([N+](=O)[O-])c(-n3nc(C)cc3C)c2)CC1
    -2.9%	-0.1%	-6.3%	1.3%	0.0%
- CN(C)S(=O)(=O)N1CCN(c2ccc([N+](=O)[O-])c(N3CCCCC3)c2)CC1
    10.3µM*	-16.6%	-26.4%	-1.8%	3.6%
- CCCS(=O)(=O)NC(=O)C1(C)CCN(C(=O)c2cc(C)nn2C(C)(C)C)C1 (stereo not drawn)
    -3.3%	.	-10.8%	.	.
- Cc1noc(C)c1CSCC(=O)OCC(=O)Nc1sccc1C#N
    -2.7%	-1.6%	-22.1%	2.0%	2.0%
- CCc1ccc(NC(=O)CSc2nc3ccccc3c(=O)n2CCNC(C)=O)cc1
    -22.4%	0.4%	-21.0%	.	1.5%
- COCCCn1c(SCC(=O)Nc2ccc(C)cc2)nc2ccccc2c1=O
    ?	-40.2%	1.1%	-0.7%	2.8%
- CC(=O)c1cccc(NC(=O)CSc2nc3ccccc3c(=O)n2CCCN2CCOCC2)c1
    ?	.	-20.8%	8.2%	-0.4%
- Cc1cccc(NC(=O)C(C)Sc2nc3ccccc3c(=O)n2CCCN2CCOCC2)c1 (stereo not drawn)
    -21.5%	.	23.1µM*	?	3.3%
- CCc1ccc(NC(=O)CSc2nc3ccccc3c(=O)n2CCCN2CCC(C)CC2)cc1
    23.1µM*	-17.9%	?	14.5%	2.6%
- Cc1ccc(NC(=O)CSc2nc3ccccc3c(=O)n2CCCN2CCCCC2)cc1C
    ?	22.6%	25.9µM*	-9.0%	3.1%
- Cc1ccc(NC(=O)CSc2nc3ccccc3c(=O)n2CCCC(=O)N2CCCC2)cc1
    20.6µM*	2.9%	18.4µM*	0.2%	7.6%
- CC1(C)CC(=O)C(Sc2ccc(Br)cc2)=C(O)C1
    ?	2.6%	8.9%	3.6%	0.0%
- CC(=O)OCC(=O)Nc1ccc(C(C)=O)cc1
    15.4%	3.0%	-17.4%	1.0%	-1.0%
- COc1ccc(N2CCN(CCNC(=O)Nc3ccc(C)cc3Cl)CC2)cc1
    ?	-0.9%	?	-1.8%	.
- CN(C)S(=O)(=O)c1ccc(Cl)c(NC(=O)CSc2nc3ccccc3c(=O)n2CCCN2CCOCC2)c1
    25.9µM*	-6.1%	?	16.2%	0.0%
- COc1ccc(NC(=O)CSc2nc3ccccc3c(=O)n2CCCN2CCOCC2)c(OC)c1
    ?	1.8%	?	-1.9%	0.0%
- CCCCn1c(SCC(=O)NCc2ccccc2)nc2ccc(N3CCOCC3)cc2c1=O
    1.46µM*	-1.8%	-20.5%	.	9.1%
- CCCCn1c(SCC(=O)Nc2cc(NC(=O)c3ccco3)ccc2C)nc2ccccc2c1=O
    23.1µM*	-11.5%	?	.	4.9%
- COCCn1c(SCC(=O)Nc2ccc(NC(=O)c3ccco3)c(OC)c2)nc2ccccc2c1=O
    2.1%	-6.5%	10.0%	-5.2%	2.9%
- Cc1ccc(S(=O)(=O)N(C)C)cc1-n1c(SCC(=O)Nc2ccc(F)cc2Cl)nc2ccccc2c1=O
    16.4µM*	-4.4%	20.6µM*	-7.0%	2.8%
